T1: LIN28A (human?, UniProt Q9H9Z2 1-209)
T1 sequence: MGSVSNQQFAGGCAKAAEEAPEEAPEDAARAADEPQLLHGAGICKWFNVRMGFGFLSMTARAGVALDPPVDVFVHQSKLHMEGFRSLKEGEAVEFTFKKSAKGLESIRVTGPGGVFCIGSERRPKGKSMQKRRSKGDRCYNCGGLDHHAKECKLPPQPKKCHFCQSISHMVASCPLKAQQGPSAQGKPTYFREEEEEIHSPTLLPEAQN

T2: CIRBP (Homo sapiens, UniProt Q14011 1-172)
T2 sequence: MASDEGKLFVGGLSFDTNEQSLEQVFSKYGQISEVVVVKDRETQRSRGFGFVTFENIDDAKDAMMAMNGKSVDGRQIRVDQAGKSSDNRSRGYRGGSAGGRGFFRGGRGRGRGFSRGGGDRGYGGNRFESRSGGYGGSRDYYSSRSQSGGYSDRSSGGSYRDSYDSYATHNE

T3: DHX36 (Homo sapiens, UniProt Q9H2U1 1-1008)
T3 sequence: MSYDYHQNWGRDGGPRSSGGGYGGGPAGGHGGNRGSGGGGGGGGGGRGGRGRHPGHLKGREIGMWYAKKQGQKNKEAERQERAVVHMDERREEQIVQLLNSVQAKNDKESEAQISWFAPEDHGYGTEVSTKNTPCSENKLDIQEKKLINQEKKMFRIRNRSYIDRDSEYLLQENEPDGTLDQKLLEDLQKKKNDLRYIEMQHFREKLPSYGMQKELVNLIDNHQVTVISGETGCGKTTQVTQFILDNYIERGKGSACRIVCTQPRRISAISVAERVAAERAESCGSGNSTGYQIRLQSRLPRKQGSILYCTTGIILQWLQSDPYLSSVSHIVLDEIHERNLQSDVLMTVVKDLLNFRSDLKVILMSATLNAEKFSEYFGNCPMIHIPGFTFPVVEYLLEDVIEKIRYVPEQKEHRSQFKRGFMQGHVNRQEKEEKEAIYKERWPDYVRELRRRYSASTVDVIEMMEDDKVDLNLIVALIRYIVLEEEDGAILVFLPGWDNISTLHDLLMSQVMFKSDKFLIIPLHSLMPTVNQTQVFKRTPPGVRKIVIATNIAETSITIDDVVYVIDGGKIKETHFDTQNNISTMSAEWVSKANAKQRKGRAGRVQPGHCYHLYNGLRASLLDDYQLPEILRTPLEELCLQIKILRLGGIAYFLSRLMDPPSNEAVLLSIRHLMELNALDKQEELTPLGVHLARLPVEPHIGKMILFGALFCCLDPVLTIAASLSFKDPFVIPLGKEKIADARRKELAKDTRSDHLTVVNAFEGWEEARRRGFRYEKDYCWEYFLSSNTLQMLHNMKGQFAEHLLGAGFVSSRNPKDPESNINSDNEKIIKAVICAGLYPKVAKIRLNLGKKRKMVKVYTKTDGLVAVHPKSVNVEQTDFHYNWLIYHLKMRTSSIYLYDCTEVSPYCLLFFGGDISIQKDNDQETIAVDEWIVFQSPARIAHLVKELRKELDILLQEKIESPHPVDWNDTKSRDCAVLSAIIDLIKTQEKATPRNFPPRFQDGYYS

B1: hsa-mir-329-2 (structured_RNA)
RNA: GGGAAAGAAUUGUCGAGGACGCCGGUCCGGUGUACGAAGUUUCAGCUGUUUCUUUAUUGAGGACGAAACAGCUGAAGCUUCGUGCAC
B2: hsa-mir-2115 (structured_RNA)
RNA: GGGAAACGAAUGUUCGCAGCGAAAGGUCGGUGUACGAAGUUUCAGCGAUGGAGGAAUCACAUGAAUUCAUCGCUGAAGCUUCGUGCAC
B3: NEAT1_ParasoR_ID17 (structured_RNA)
RNA: GGGAAGGCUAAAGGAGGACUAACAUUCGGGUGUACGAAGUUUCAGCGUAAUGAUCAUCACUUUUCAUUAUGCUGAAGCUUCGUGCAC
B4: hsa-mir-3171 (structured_RNA)
RNA: GGGACCGAGGUUGACCGGCUAUGUACCUGGUGUACGAAGUUUCAGCUAUCUAUAUAUAUGUGUAGCUGAAGCUUCGUGCAC
B5: hsa-mir-2054 (structured_RNA)
RNA: GGGACGAAUGCUGCAGCCGAGAAUCUACGGUGUACGAAGUUUCAGCUAUUCUCUAUGCUGAAGCUUCGUGCAC
B6: hsa-mir-557 (structured_RNA)
RNA: GGGAACGCUCAUGUGCGAAAGCCAUCAGGGUGUACGAAGUUUCAGCUGCUGGAGAAGUGUUUGCUGAAGCUUCGUGCAC
B7: hsa-mir-3657 (structured_RNA)
RNA: GGGAAAGGGCUACGAGCAAAGACCCUAGGGUGUACGAAGUUUCAGCCACUAAUGUGAUUAAUGUUGUUGUGGCUGAAGCUUCGUGCAC
B8: hsa-mir-943 (structured_RNA)
RNA: GGGAACUAGAAUGGAUUGAAGCUUGCGAGGUGUACGAAGUUUCAGCUCACUGCUGCUGGCGCCCUGAGCUGAAGCUUCGUGCAC
B9: PARIS_ID5 (structured_RNA)
RNA: GGGAUAAACGUCCUGGCAAGGAAUAAUCGGUGUACGAAGUUUCAGCGCACGUGCUGCCAAAAUAGAAUAAUGUUGGUCCUCUCCUCAUGUGCGCUGAAGCUUCGUGCAC
B10: hsa-mir-4694 (structured_RNA)
RNA: GGGAAAGAUCGAGGUUACAUCAAUGCCUGGUGUACGAAGUUUCAGCUUUGCCUCUCUCAGAAAAUAGAGUCAAAGCUGAAGCUUCGUGCAC
B11: hsa-mir-4672 (structured_RNA)
RNA: GGGAAAUCAGCGACCCAGAGUGUAGCCUGGUGUACGAAGUUUCAGCGUGGCCUUGGACAAGCCUCUUGGUUACGCUGAAGCUUCGUGCAC
B12: hsa-mir-616 (structured_RNA)
RNA: GGGAAGGGAGCCCAAGAAAGCCGAUAGAGGUGUACGAAGUUUCAGCGACUUCCAUGACAUGAAAUAGGAAGUCGCUGAAGCUUCGUGCAC
B13: hsa-mir-23a (structured_RNA)
RNA: GGGAAGGUAUGGAUACUUGACGACAGAAGGUGUACGAAGUUUCAGCGGAUUUGCUUCCUGUCACAAAUCAGCUGAAGCUUCGUGCAC
B14: hsa-mir-15b (structured_RNA)
RNA: GGGAAAUUACACGGAGCUAUGAACUAAGGGUGUACGAAGUUUCAGCUUUACAUGCUACAGUCAAGAUGCGAAGCUGAAGCUUCGUGCAC
B15: hsa-mir-548d-2 (structured_RNA)
RNA: GGGAAUUUUAUCGAGGUGAAACGAAUCGGGUGUACGAAGUUUCAGCUUUGCCAUUGAAAGUAAUGGCAAAGCUGAAGCUUCGUGCAC
B16: NEAT1_ParasoR_ID3 (structured_RNA)
RNA: GGGACGUAAAUUCGGGGUUGACGAAACUGGUGUACGAAGUUUCAGCAAAAACCACAAACAUUAUUUUGUUCUUUUUGCUGAAGCUUCGUGCAC
B17: hsa-mir-6777 (structured_RNA)
RNA: GGGAAAGAUUGCCAAGGGGAUCGGUCCUGGUGUACGAAGUUUCAGCUGGUGGAGAUGGAGAGCCCUGAGCCUCCAGCUGAAGCUUCGUGCAC
B18: hsa-mir-4496 (structured_RNA)
RNA: GGGAGCGCGAAUACUAGCUAUCUCGGUCGGUGUACGAAGUUUCAGCCCUCGAAGCUGCCUUUAGAAAUGAGGGCUGAAGCUUCGUGCAC
B19: hsa-mir-1289-2 (structured_RNA)
RNA: GGGACUUAGACUAAGGGGUACGCCUUUAGGUGUACGAAGUUUCAGCCCUGCCUCAGAACUACUGAACAGAGUCACUGGGUGUGGAGCUGAAGCUUCGUGCAC
B20: hsa-mir-6823 (structured_RNA)
RNA: GGGAGAAUAGCAGGGACACUGAAACGGAGGUGUACGAAGUUUCAGCUGCUGUUGCUGUGAAAGCUGAGCUGAAGCUUCGUGCAC
B21: hsa-mir-9-1 (structured_RNA)
RNA: GGGAGAAACGCCAUGGACCGGAACUUAAGGUGUACGAAGUUUCAGCGUAUGAGUGGUGUGGAGUCUUCAUAAGCUGAAGCUUCGUGCAC
B22: hsa-mir-518d (structured_RNA)
RNA: GGGAAACCUAUAGGGAGGGUUACUUCGAGGUGUACGAAGUUUCAGCUUCUGUUGUCUGAAAGAAACCAAGCUGAAGCUUCGUGCAC
B23: hsa-mir-5011 (structured_RNA)
RNA: GGGACACACUAUCUCGGUCGGAGAGUGAGGUGUACGAAGUUUCAGCGCACUCUGUAGUUUGGGUACACAGUGCGCUGAAGCUUCGUGCAC
B24: hsa-mir-1248 (structured_RNA)
RNA: GGGAAGUCGGGAAAUUGAUUUACAUCCGGGUGUACGAAGUUUCAGCAAAUUGCAGACACUAGGACCAUGUCUUGGUUUUUGCAAUAAUGGCUGAAGCUUCGUGCAC
B25: hsa-mir-6721 (structured_RNA)
RNA: GGGACGGCUUUUAGGAGUCGUCUGGCUUGGUGUACGAAGUUUCAGCAGUCUCUGAAGAGAGCUGUGGACUGAGCUGAAGCUUCGUGCAC
B26: hsa-mir-6746 (structured_RNA)
RNA: GGGAAGGGAGCGCUAAAUCGAAUCUCCCGGUGUACGAAGUUUCAGCCCUGGAGAGCUGCUGUCUCCAGGCUGAAGCUUCGUGCAC

The list shows a part of the results.

The first assay deals with T1, LIN28A. Kind of assay: FOREST: bead pull-down of RNA structure library v1, barcode microarray; U1A/LIN28A: 20 mM HEPES pH 7.5, 80 mM KCl, 20 mM NaCl, 10% glycerol, 2 mM DTT, 0.1 ug/uL BSA, 4 C; BG4/CIRBP/DHX36: 10 mM Tris-HCl pH 7.5, 100 mM KCl (or LiCl),; high values mean tight binding.
The molecule B1 gave a binding signal of 0.384 z-score.
The same measure, in the same setting: for B2 the value was 0.391 z-score; for B3, 0.426 z-score.
The molecule B4 returned a binding signal of 0.384 z-score.
The same measure, in the same setting: for B5 the value was 0.455 z-score; for B6, 0.424 z-score.
Molecule B7 yielded a binding signal of 0.408 z-score.
As to B8, the binding signal stood at 0.393 z-score.
B9 came in with a binding signal of 0.405 z-score.
Same read-out and setting: for B10 the value was 0.433 z-score; for B11, 0.444 z-score; for B12, 0.432 z-score.
B13 returned a binding signal of 0.399 z-score.
Turning to B14, the binding signal is 0.431 z-score.
The molecule B15 yielded a binding signal of 0.387 z-score.
On the same count and under the same terms, the value for B16 was 0.422 z-score.
Consider B17, for which the binding signal worked out at 0.387 z-score.
B18 gave a binding signal of 0.428 z-score.
Still for that read-out and setting: for B19 the value was 0.431 z-score; for B20, 0.421 z-score.
B21 came in with a binding signal of 0.416 z-score.
Regarding B22, the binding signal is 0.392 z-score.
The same measure, in the same setting: the value for B23 was 0.425 z-score; that for B24 was 0.385 z-score; that for B25 was 0.445 z-score.
The same measure, in the same setting: the value for B26 was 0.391 z-score.

In another assay the target is T2, CIRBP. The assay is described as above.
Turning to B1, the binding signal was -0.0865 z-score.
B2 came in with a binding signal of 2.05 z-score.
In turn, B3 yielded a binding signal of 1.58 z-score.
Consider B4, for which the binding signal is 0.177 z-score.
On the same count and under the same terms, the value for B5 was 0.489 z-score.
Still for that read-out and setting: the value for B6 was 0.528 z-score; that for B7 was -0.229 z-score; that for B8 was 0.935 z-score.
In turn, B9 showed a binding signal of 0.535 z-score.
The same measure, in the same setting: the value for B10 was 1.07 z-score; that for B11 was 0.106 z-score.
For the molecule B12, the binding signal was -0.195 z-score.
Still for that read-out and setting: for B13 the value was 0.686 z-score; for B14, 0.0296 z-score.
Same read-out and setting: for B15 the value was 1.34 z-score.
B16 came in with a binding signal of 0.81 z-score.
The same measure, in the same setting: the value for B17 was 0.611 z-score; that for B18 was 0.491 z-score; that for B19 was 0.433 z-score.
Still for that read-out and setting: the value for B20 was 1.45 z-score.
Molecule B21 had a binding signal of 0.386 z-score.
For the molecule B22, the binding signal came out at 1.08 z-score.
Consider B23, for which the binding signal is -0.17 z-score.
B24 had a binding signal of 2.32 z-score.
Still for that read-out and setting: the value for B25 was -3.27 z-score.
Same read-out and setting: for B26 the value was -0.918 z-score.

In a further assay the target is T3, DHX36. Described as above.
As to B1, the binding signal is 0.0667 z-score.
As for B2, the binding signal was 0.332 z-score.
B3 registered a binding signal of 0.793 z-score.
The same measure, in the same setting: the value for B4 was -0.374 z-score; that for B5 was -0.863 z-score; that for B6 was -0.346 z-score.
B7 showed a binding signal of -0.64 z-score.
Still for that read-out and setting: for B8 the value was 0.0801 z-score.
The same measure, in the same setting: for B9 the value was -1.02 z-score; for B10, 0.256 z-score; for B11, -0.526 z-score.
The same measure, in the same setting: the value for B12 was -0.357 z-score; that for B13 was -0.263 z-score.
On to B14, for which the binding signal is -0.428 z-score.
Same read-out and setting: the value for B15 was -0.184 z-score; that for B16 was -0.0659 z-score; that for B17 was 1.29 z-score.
For the molecule B18, the binding signal came to 0.0133 z-score.
B19 displayed a binding signal of 0.179 z-score.
On the same count and under the same terms, for B20 the value was 0.541 z-score; for B21, -0.0238 z-score; for B22, 0.232 z-score.
Same read-out and setting: the value for B23 was 0.195 z-score.
The same measure, in the same setting: for B24 the value was 0.51 z-score; for B25, -0.51 z-score; for B26, -0.565 z-score.

The record behind these values is publication PMC7723054.
